# Sampled rows, rich in hits. Any-hit rate of the full collection: about 2.2%.
# FGF22 binding: binders of recombinant human FGF22 by thermal shift; Q9HCT0; SYPRO orange fluorescence; percent of sucrose octasulfate shift, DMSO zero; activity (Tm shift, normalised), % at 9.99 µM; 340,000 compounds, 1.5% hits;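 active means mean Tm shift, scaled 0 neutral to 100 positive control, at about 1.3% or above, every replicate too, limit read from the data; inconclusive means no clear call, values can overlap the other calls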
# Yeast UUG start: alters start codon recognition fidelity in yeast. S. cerevisiae UUG-firefly luciferase reporter, luminescence/redox ratio. AID 602363. activity score, % at 18.7 µM. hit rate 0.13% among 350,000;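 active = replicate mean at a twofold rise or more, about +100% in these data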;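 note: firefly luciferase made from a UUG start codon reports start codon fidelity; reporter light over untreated wells divided by growth signal over untreated wells; some hits fall short of that in this replicate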
# SIRT5 inh: blocks human SIRT5 desuccinylation of peptide. Q9NXA8. Purified SirT5, succinyl-peptide AMC, trypsin-coupled fluorescence. inhibition, % at 15 µM. 330,000 compounds, 1.1% hits; in the data active means inhibition above about 15%; inconclusive means no clear call, values can overlap the other calls
# S100A4 MyoIIA: S100A4-myosin IIA interaction inhibition. P26447. S100A4/TAMRA-MyoIIA peptide fluorescence polarization. inhibition, % at 10.7 µM. 360,000 compounds, 0.14% hits. AID 652163;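 active means mean inhibition of at least 70% across replicates, with every replicate also reaching that level; inconclusive means mean inhibition reaches 70% but some replicates fall short; inactive means mean inhibition below 70%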
#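 Test system: S100A4 monomer protein. Medium: HEPES buffer with Ca2+, pH 7.2. Reagent: fluorescent myosin IIA peptide, 5 nM. Compound dosing: single-point compound testing. Timing: 5 min between mix addition and reading. Benchmarks: DMSO neutral and TFP positive wells.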
# PDI inh: blocks human protein disulfide isomerase activity. PDI insulin aggregation turbidity, A650, 90 min. AID 588391. P07237. 350,000 compounds, 0.052% hits. inhibition, % at 10 µM;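 active means mean inhibition across replicates of 30% or more, whatever share of single replicates reach that level; inconclusive means mean inhibition below 30% while every single replicate reaches 30%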
# ERp5 inh: ERp5 (human) disulfide isomerase inhibition. ERp5 insulin aggregation, absorbance 650 nm, 90 min. inhibition, % at 9.99 µM. 350,000 compounds, 0.05% hits. AID 651711;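 active means mean replicate inhibition above about 25%, with every replicate also reaching it, limit read from the data, passing the limit was not always enough; inconclusive means only one of those two criteria met; inactive means neither criterion met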
# An asterisk follows results filed as active; ? = inconclusive; · = not tested or not shown; ! = repeats disagree.
No.	Compound	FGF22 binding	Yeast UUG start	SIRT5 inh
1	CC(C)CC#Cc1ccc2c(c1)O[C@@H](CN(C)Cc1cccnc1)[C@@H](C)CN([C@@H](C)CO)S2(=O)=O	0	-7	11
2	O=C(COC(=O)C1CC1)Nc1ncc(Cl)cc1Cl	0	·	2
3	O=C(COC(=O)C1CC1)Nc1ncc(C(F)(F)F)cc1Cl	44*	·	-3
4	CC(C)=NNc1nc2c(c(=O)[nH]c(=O)n2C)n1CCc1ccccc1	0	·	37*
5	NS(=O)(=O)c1ccc(F)c(C(=O)O)c1	0	18	19*
6	O=C(Nc1cccc(C(F)(F)F)c1)c1ccc(-n2cncn2)nc1	43*	·	12
7	COc1cccc(NC(=O)N2C[C@H](O)COC[C@H]3O[C@H](CC(=O)NC4CCCC4)CC[C@@H]32)c1	0	-1	-2
8	COC(=O)C[C@H]1CC[C@H]2[C@H](COc3ccc(NC(=O)Nc4cccc(Cl)c4)cc3C(=O)N2C)O1	0	15	-3
9	CS(=O)(=O)N1N=C(c2ccco2)CC1c1cccc([N+](=O)[O-])c1 (stereo not drawn)	0	·	-4
10	CS(=O)(=O)N1N=C(c2ccco2)CC1c1ccc(Br)cc1 (stereo not drawn)	44*	·	-4

No.	S100A4 MyoIIA	PDI inh	ERp5 inh
1	12	·	2
2	6	-2	-3
3	1	3	0
4	25	7	0
5	-5	4	8
6	-1	-5	-3
7	1	·	-1
8	34	·	5
9	0	19	4
10	-1	8	-8

# Record cards (already shown).
# CC(C)CC#Cc1ccc2c(c1)O[C@@H](CN(C)Cc1cccnc1)[C@@H](C)CN([C@@H](C)CO)S2(=O)=O is entered as FGF22 binding = 0; Yeast UUG start = -7; SIRT5 inh = 11; S100A4 MyoIIA = 12; PDI inh = ·; ERp5 inh = 2
# O=C(COC(=O)C1CC1)Nc1ncc(Cl)cc1Cl is entered as FGF22 binding = 0; Yeast UUG start = ·; SIRT5 inh = 2; S100A4 MyoIIA = 6; PDI inh = -2; ERp5 inh = -3

# (listing goes on)
No.	Compound	FGF22 binding	Yeast UUG start	SIRT5 inh
11	CO[C@H](CN(C)S(=O)(=O)c1cccc(Cl)c1)[C@H](C)CN([C@@H](C)CO)S(=O)(=O)c1ccc(Cl)cc1	0	·	1
12	CO[C@@H](CN(C)S(=O)(=O)c1ccc(Cl)cc1)[C@H](C)CN([C@H](C)CO)S(=O)(=O)c1cccc(Cl)c1	0	·	16*
13	Cc1ccc2nc(COc3ccc(Cl)cc3)cc(=O)n2c1	43*	·	-2
14	Cc1ccc2nc(CSc3nnc(-c4ccco4)n3-c3ccccc3)cc(=O)n2c1	·	12	·
15	Cc1ccc2nc(CSc3nnc4ccccn34)cc(=O)n2c1	43*	·	3
16	C[C@@H]1CN([C@@H](C)CO)C(=O)c2cc(-c3cccnc3)cnc2O[C@@H]1CN(C)C(=O)Nc1ccc2c(c1)OCO2	0	5	1
17	COc1ccc(C(=O)C[n+]2cc(-c3ccc(OC)cc3)n3c2CCCC3)cc1	43*!	·	-2
18	Cc1ccc(C(=O)C[n+]2cc(-c3ccc(C)cc3)n3c2CCCCC3)cc1	·	-1	·
19	Cc1noc(C)c1NC(=O)N(C)C[C@H]1OCCCC[C@@H](C)Oc2ccc(NS(=O)(=O)c3ccccc3)cc2C(=O)N([C@H](C)CO)C[C@H]1C	·	24	-2
20	N#C/C(=C\c1ccc(C(=O)O)cc1)c1nc2sc3c(c2c(=O)[nH]1)CCCC3	0	·	20*

No.	S100A4 MyoIIA	PDI inh	ERp5 inh
11	11	·	-4
12	4	·	0
13	-4	1	-1
14	·	1	·
15	2	-4	4
16	-4	·	-1
17	-13	2	4
18	·	-1	·
19	-12	·	1
20	-3	0	3

No.	Compound	FGF22 binding	Yeast UUG start	SIRT5 inh
21	C[C@@H]1CCCCO[C@@H](CN(C)CC2CC2)[C@H](C)CN([C@H](C)CO)C(=O)c2cc(NS(C)(=O)=O)ccc2O1	0	·	-3
22	O=C1C=CCCN1C(=O)/C=C/c1ccccc1	1	·	0
23	CC(C)CC1NC(=O)N(CCCCN2C(=O)c3ccccc3C2=O)C1=O (stereo not drawn)	44*	·	-2
24	CC(C)NC(=O)N(C)C[C@H]1Oc2ccc(NC(=O)Cc3cn(C)c4ccccc34)cc2C(=O)N([C@@H](C)CO)C[C@H]1C	0	5	0
25	CCOc1ccc(OCc2ccc(C(=O)N/N=C(\C)c3ccccn3)cc2)cc1	43*	·	-1
26	C/C(=N\NC(=O)c1ccccc1OCc1ccc(F)cc1)c1ccccn1	0	-21	0
27	CO[C@@H]1CN(C)C(=O)c2ccc(NC(=O)CN(C)C)cc2OC[C@@H](C)N(C(=O)C2CCOCC2)C[C@H]1C	0	·	-2
28	S=C(NCc1ccccc1)NC1CCCc2ccccc21 (stereo not drawn)	0	·	112*
29	CCCCCCSc1nnc2[nH]c(=O)cc(N)n12	0	·	-9
30	CCCCCCCCSc1nnc2[nH]c(=O)cc(N)n12	43*	·	-1

No.	S100A4 MyoIIA	PDI inh	ERp5 inh
21	20	·	8
22	0	·	-2
23	-1	-6	-1
24	-5	·	-4
25	1	-7	1
26	-8	6	7
27	6	·	6
28	-4	-8	2
29	0	-7	5
30	0	2	-1

No.	Compound	FGF22 binding	Yeast UUG start	SIRT5 inh
31	Cn1cnc(CCNC(=O)C[C@@H]2CC[C@@H]3[C@H](COC[C@@H](O)CN3C(=O)C3CC3)O2)c1	0	·	-2
32	CCCNC(=O)C[C@@H]1CC[C@@H]2[C@H](COC[C@@H](O)CN2C(=O)C2CCOCC2)O1	·	-3	16*
33	CCC(=O)N1C[C@@H](O)COC[C@@H]2O[C@H](CC(=O)NCc3cc(F)cc(F)c3)CC[C@H]21	0	·	·
34	CCCNC(=O)C[C@H]1CC[C@@H]2[C@H](COC[C@H](O)CN2C(=O)C2CCOCC2)O1	0	-9	10
35	CCC(=O)N1C[C@H](O)COC[C@H]2O[C@H](CC(=O)NCc3cc(F)cc(F)c3)CC[C@@H]21	0	·	7
36	Cn1cnc(CCNC(=O)C[C@H]2CC[C@H]3[C@@H](COC[C@@H](O)CN3C(=O)C3CC3)O2)c1	-1	·	-1
37	O=C(C[C@@H]1CC[C@@H]2[C@H](COC[C@@H](O)CN2C(=O)c2ccc3c(c2)OCO3)O1)NCCN1CCCC1	·	·	1
38	CN(C)C(=O)C[C@H]1C[C@H]2c3cc(NC(=O)NC4CCCCC4)ccc3O[C@H]2[C@@H](CO)O1	0	9	-2
39	O=C(C[C@H]1C=C[C@H](NC(=O)c2ccccc2)[C@@H](CO)O1)NCc1ccc(Oc2ccccc2)cc1	0	·	0
40	COC(=O)[C@@H]1[C@@H](CO)[C@@H]2Cn3c(ccc(-c4ccccc4OC)c3=O)[C@@H]2N1C(=O)c1cccnc1	0	·	2

No.	S100A4 MyoIIA	PDI inh	ERp5 inh
31	15	·	-1
32	-60	·	5
33	·	·	·
34	-59	·	2
35	88*	·	-5
36	85*	·	1
37	73*	·	-6
38	10	·	-2
39	16	·	1
40	-4	·	6

No.	Compound	FGF22 binding	Yeast UUG start	SIRT5 inh
41	COc1cccc(CNC(=O)C[C@@H]2C=C[C@@H](NC(=O)C3CCC3)[C@H](CO)O2)c1	·	·	·
42	COc1ccc2c3c([nH]c2c1)[C@H](CO)N(C(=O)Nc1ccc(F)cc1)CC31CCN(S(=O)(=O)c2ccc(C)cc2)CC1	0	·	3
43	COc1cccc(NC(=O)N[C@@H]2CC[C@@H](CC(=O)N3CCN(C)CC3)O[C@@H]2CO)c1	0	-4	0
44	O=S(=O)(c1ccc(Br)cc1)c1nc(-c2ccco2)oc1NCC1CCCO1 (stereo not drawn)	43*	·	-2

No.	S100A4 MyoIIA	PDI inh	ERp5 inh
41	-2	·	·
42	?	·	-3
43	-2	·	-2
44	-3	0	5
